Here are results for one molecule from patent US20260042815A1, “UNIVERSAL T CELLS AND COMPOSITIONS AND METHODS OF USE THEREOF” (The Trustees of the University of Pennsylvania, priority 2022, published 2026).

Experiment [1] has as its system NK cells. Briefly: Real time apoptotic cell death analysis (xCELLigence eSIGHT live cell imaging), mCherry K562 targets plus NK cells. The class given is cell-based, human. The procedure:
Real time apoptotic cell death analysis (live cell imaging with cellular impedance) was performed using the xCELLigence real time cell analysis eSIGHT system (Agilent). mCherry labeled-K562 target cells were plated (10,000/well) and allowed to adhere for 24 h. Effector NK cells (normal donor 517) were added at a 5:1 E:T ratio and the assay was continued for 3 additional days. Red total integrated intensity (live imaging) was measured every 15 min for 3 days. Decreased in intensity reflected elimination of targets. […] Values reflected the mean of triplicate wells+/−SD.
The balance of NK populations (NKG2A vs. NKG2C) within a donor influences the functional outcome upon SCT engagement by NK cells (FIG. 24).

For experiment [2], the system named is NK cells. Briefly: Flow based NK cell activation assay (CD107a degranulation) with K562 cells +/- HLA-E SCT. On the set-up: species or system human. The procedure:
Flow based assay was utilized to examine NK cell activation by K562 cells+/−HLA-E SCT. NK cells were mixed with K562 cells (1:1 ratio) for 6 h and then stained with antibodies to CD107a to measure degranulation of the major subsets (NKG2A+ and NKG2C+). The bar graph summarized the representative results that indicated the protection provided by HLA-E SCT for the NKG2A+ subset (FIG. 19). In contrast, HLA-E SCT conferred no protection of K562 by NKG2C+ subset.

Experiment [3] concerns NK cells. Kind of experiment: Standard 4 h 51Chromium release assay, K562 HLA-E SCT transfectants as targets, NK cells as effectors. The conditions noted are these: for NK cell-mediated lysis of K562 targets: across experiments. The experiment is classed as cell-based, human. The text has this: Furthermore, the present studies have utilized the SCT format as a facile platform to generate a new molecular entity that solves a critical gap in the ability to engraft normal donor cells or tissues in an unrelated allogeneic host. […] The present studies designed and tested an HLA-E single-chain trimer (ScT) as an inhibitory receptor for UCART cells and also determined the key NK cell activating receptors that recognize stress ligands on UCART cells (FIG. 5). By LV gene transfer, a panel of K562 transfectants have established to develop a screening platform that permitted functional assays using NK cells as effectors to determine the degree of protection against cytolysis (FIG. 6 through FIG. 9). […] Next, seven HLA-E SCT constructs expressed in K562 were examined and used as targets in a standard 4 h ^51Chromium release assay. NK cells were used from several normal donors as effector cells to study the ability of HLA-E SCT to act as a decoy to inhibit NK cell mediated killing. It was well-established that both NKG2A and NKG2C bind HLA-E present on the target cell. It was the integration of combined signaling through the two NKG2 receptors that determined NK cell effector function.
NK cells from normal donor 517 were expanded for 10 d in IL-2/IL-15 and used as effector cells at the indicated effector to target ratios (E:T ratio) in a standard 4 hr ^51Cr release assay. Target cells (10,000 per well) studied included K562 parental and K562 transfected with various HLA-E single chain trimer constructs. Target cells were labeled with ^51Chromium for 1 h, washed 3×, and then plated in 96 well trays containing NK cells. All assays are performed in triplicate. After 4 h incubation at 37° C., 5% CO2, the plate was removed from the incubator and centrifuged for 10 minutes. 50 ul of supernatant was carefully removed and counted in a MicroBeta2 LumiJET microplate counter (Perkin Elmer). Data were represented as percent-specific lysis reported as mean+/−SD.
NK cells from five normal donors were studied in a 4 h ^51Cr release assay using K562 HLA-E SCT targets. […] As a control, parental K562 cells were killed by NK cells from all donors.

B1: HLA-E SCT: HLA-E/beta-2-microglobulin/peptide single chain trimer presenting the HLA-C*03:01 leader peptide (SEQ ID NO: 40) (protein)
chain: VMAPRTLILGGGASGGGGSGGGGS[about 100 residues skipped]GGGGSGGGGSGGGGSGGGGSGSHSLKYFHTSVSRPGRGEPRFISVGYVDDTQFVRFDNDAASPRMVPRAPWMEQEGSEYWDRETRSARDTAQIFRVNLRTLRGYYNQSEAGSHTLQWMHGCELGPDGRFLRGYEQFAYDGKDYLTLNEDLRSWTAVDTAAQISEQKSNDASEAEHQRAYLEDTCVEWLHKYLEKGKETLLHLEPPKTHVTHHPISDHEATLRCWALGFYPAEITLTWQQDGEGHTQDTELVETRPAGDGTFQKWAAVVVPSGEEQRYTCHVQHEGLPEPVTLRWKPASQPTIPIVGIIAGLVLLGSVVSGAVVAAVIWRKKSSGGKGGSYSKAEWSDSAQGSESHSL
Regarding B1, the “Protection of K562 targets from killing in live cell imaging” value is given as “partial protection” in the experiment on NK cells [1] (ND561 NK cells (21% NKG2C+), 3 d) and “complete lysis protection” with NK cells [1] (NK cells of normal donor 517 (primarily NKG2A), 5:1 E:T, 3 days). The “Inhibition of NK cells in degranulation (CD107a) assays” value with NK cells [2] (K562 transduced targets) is given as “significant inhibition of NK cells”. Moreover, the “CD107a degranulation / protection, NKG2A+ subset” value in the experiment on NK cells [2] (NKG2A+ NK cells, K562 1:1 ratio, 6 h) is “protection”. In the experiment with NK cells [2] (NKG2C+ NK cells, K562 1:1 ratio, 6 h), the “CD107a degranulation / protection, NKG2C+ subset” value is recorded as “no protection”. In addition, the “Reduction in K562 lysis” value in the experiment on NK cells [3] (4-hour assay, 2:1 E:T ratio, compared with other HLA-E SCT constructs) was “most significant reduction in K562 lysis”. The entries for the “Inhibition of NK cells by HLA-E SCT” value with NK cells [3] (NK485 NK cells (significant NKG2C)) and in the experiment with NK cells [3] (NK517 NK cells (NKG2A exclusively)) were “less susceptible to inhibition” and “almost completely inhibited”, respectively. The “Inhibition of NK cell lysis of K562 targets” value with NK cells [3] (NK cells from donor 517) is reported as “inhibited most significantly”. For the same molecule, the entries for the “Inhibition of NK cell subset by HLA-E SCT” value in the experiment with NK cells [3] (NKG2A+/NKG2C+ double positive subset) and with NK cells [3] (NKG2C+ single positive NK cells) were “inhibited” and “minimally inhibited”, respectively. Also, the “NK cell-mediated lysis of K562 targets” value in the experiment on NK cells [3] is given as “consistently reduced NK cell-mediated lysis”; with NK cells [3] (listed as C*0301 leader peptide), “most reproducible inhibition”; with NK cells [3] (listed as HLA-E/C), “Decreased lysis”.
